How the values were obtained:
[1] = Apparent permeability in dog RRCK cells; assay type: ADME, cell-based, Canis lupus familiaris; conditions: mdckii-le
Protein ENL = Protein ENL (Homo sapiens, UniProt Q03111); experiment: Binding affinity to human his-tagged recombinant YEATS1 expressed in Escherichia coli assessed as inhibition constant using biotin tagged lysine 27-crotonylated histone H3 peptide as substrate preincubated for 20 mins followed by substrate addition measured after 30 mins by FRET analysis
[2] = Intrinsic clearance in human hepatocytes assessed per million cells; assay type: ADME, cell-based, Hepatocyte
[3] = molecular target: YEATS domain-containing protein 2 (Homo sapiens, UniProt Q9ULM3); experiment: Binding affinity to human his-tagged recombinant YEATS2 expressed in Escherichia coli assessed as inhibition constant using biotin tagged lysine 27-crotonylated histone H3 peptide as substrate preincubated for 20 mins followed by substrate addition measured after 30 mins by FRET analysis
[4] = Cytotoxicity against human THLE cells assessed as inhibition of cell growth by CellTiter-Glo assay
[5] = Lipophilicity, logD of the compound by shake flask method; assay type: physicochemical; conditions: octanol/water
Protein AF-9 = Protein AF-9 (Homo sapiens, UniProt P42568); experiment: Binding affinity to human his-tagged recombinant YEATS3 expressed in Escherichia coli assessed as inhibition constant using biotin tagged lysine 27-crotonylated histone H3 peptide as substrate preincubated for 20 mins followed by substrate addition measured after 30 mins by FRET analysis
[6] = molecular target: YEATS domain-containing protein 4 (Homo sapiens, UniProt O95619); experiment: Binding affinity to human his-tagged recombinant YEATS4 expressed in Escherichia coli assessed as inhibition constant using biotin tagged lysine 27-crotonylated histone H3 peptide as substrate preincubated for 20 mins followed by substrate addition measured after 30 mins by FRET analysis
[7] = molecular target: Voltage-gated inwardly rectifying potassium channel KCNH2 (Homo sapiens, UniProt Q12809); experiment: Inhibition of hERG assessed as inhibition constant by patch-clamp assay; assay type: toxicity

Sequences of proteins named here, by UniProt entry; tags and fusion partners are left off. A change or cut given only in a name is not applied to a line headed by its entry.
UniProt Q03111: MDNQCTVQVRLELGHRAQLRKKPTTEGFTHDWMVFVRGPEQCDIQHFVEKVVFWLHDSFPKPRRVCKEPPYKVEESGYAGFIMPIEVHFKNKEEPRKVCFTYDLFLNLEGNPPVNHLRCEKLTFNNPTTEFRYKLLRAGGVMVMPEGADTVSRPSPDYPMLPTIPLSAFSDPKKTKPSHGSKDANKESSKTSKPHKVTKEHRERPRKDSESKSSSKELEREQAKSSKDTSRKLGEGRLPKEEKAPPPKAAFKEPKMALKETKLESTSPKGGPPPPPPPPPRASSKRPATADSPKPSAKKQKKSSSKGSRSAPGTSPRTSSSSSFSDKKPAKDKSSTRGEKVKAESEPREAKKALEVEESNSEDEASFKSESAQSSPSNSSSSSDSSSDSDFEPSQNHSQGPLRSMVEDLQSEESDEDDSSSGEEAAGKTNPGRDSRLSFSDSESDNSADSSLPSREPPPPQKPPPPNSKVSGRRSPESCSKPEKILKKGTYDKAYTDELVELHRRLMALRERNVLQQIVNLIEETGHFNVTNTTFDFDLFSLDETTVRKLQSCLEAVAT
UniProt Q9ULM3: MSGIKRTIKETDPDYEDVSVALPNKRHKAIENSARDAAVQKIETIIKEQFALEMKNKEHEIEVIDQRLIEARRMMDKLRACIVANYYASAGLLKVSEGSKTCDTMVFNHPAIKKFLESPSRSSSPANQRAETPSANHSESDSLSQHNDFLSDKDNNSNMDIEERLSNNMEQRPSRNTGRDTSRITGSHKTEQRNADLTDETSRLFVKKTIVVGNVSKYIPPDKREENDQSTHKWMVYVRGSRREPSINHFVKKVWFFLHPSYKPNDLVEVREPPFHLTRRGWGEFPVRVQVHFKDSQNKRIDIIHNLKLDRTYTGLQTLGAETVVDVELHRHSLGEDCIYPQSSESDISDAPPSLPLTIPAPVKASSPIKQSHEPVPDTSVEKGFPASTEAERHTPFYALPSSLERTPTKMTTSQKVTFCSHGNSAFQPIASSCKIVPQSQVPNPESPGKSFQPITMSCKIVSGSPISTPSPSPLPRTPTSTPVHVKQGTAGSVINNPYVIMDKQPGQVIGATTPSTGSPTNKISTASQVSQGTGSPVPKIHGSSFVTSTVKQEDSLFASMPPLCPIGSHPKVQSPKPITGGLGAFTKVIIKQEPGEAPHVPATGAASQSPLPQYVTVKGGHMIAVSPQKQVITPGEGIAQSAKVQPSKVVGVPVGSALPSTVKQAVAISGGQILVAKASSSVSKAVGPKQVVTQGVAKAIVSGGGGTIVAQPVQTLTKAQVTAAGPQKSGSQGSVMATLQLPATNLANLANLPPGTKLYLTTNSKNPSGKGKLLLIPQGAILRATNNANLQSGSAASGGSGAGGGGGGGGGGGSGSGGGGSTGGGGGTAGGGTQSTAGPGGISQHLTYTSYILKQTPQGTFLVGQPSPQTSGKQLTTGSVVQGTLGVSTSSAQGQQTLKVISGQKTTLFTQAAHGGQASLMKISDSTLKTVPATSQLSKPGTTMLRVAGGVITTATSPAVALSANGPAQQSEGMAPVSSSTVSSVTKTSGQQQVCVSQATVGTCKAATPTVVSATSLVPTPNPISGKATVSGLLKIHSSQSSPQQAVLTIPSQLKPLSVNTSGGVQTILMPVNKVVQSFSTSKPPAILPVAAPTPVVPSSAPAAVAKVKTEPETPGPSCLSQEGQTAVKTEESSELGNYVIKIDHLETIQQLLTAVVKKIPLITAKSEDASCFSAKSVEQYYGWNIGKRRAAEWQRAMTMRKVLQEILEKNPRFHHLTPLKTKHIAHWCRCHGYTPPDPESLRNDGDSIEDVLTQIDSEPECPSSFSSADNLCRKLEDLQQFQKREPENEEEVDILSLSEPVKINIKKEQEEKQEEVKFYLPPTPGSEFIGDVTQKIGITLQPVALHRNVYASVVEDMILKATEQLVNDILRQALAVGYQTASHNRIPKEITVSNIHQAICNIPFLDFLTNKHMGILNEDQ
UniProt P42568: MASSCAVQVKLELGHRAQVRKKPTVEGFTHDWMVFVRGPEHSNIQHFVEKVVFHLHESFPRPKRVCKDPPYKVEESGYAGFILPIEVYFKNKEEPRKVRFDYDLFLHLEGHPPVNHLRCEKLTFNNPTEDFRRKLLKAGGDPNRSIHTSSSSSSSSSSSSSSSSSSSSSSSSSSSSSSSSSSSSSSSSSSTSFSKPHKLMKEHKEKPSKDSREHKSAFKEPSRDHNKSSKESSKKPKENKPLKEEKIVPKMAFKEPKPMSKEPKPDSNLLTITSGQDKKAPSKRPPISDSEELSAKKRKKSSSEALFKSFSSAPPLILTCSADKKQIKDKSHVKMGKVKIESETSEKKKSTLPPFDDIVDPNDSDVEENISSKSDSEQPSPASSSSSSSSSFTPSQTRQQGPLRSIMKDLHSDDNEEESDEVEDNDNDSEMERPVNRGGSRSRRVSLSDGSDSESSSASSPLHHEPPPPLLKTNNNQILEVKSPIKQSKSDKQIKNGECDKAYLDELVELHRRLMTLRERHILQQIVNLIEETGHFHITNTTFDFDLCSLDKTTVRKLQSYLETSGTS
UniProt O95619, whole entry, looked up: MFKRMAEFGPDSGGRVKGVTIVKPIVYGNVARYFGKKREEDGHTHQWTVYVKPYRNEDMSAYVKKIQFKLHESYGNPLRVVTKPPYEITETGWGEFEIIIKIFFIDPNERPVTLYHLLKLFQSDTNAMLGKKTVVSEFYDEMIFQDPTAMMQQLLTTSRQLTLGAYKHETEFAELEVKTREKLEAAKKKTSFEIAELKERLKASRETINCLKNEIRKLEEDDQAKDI
UniProt Q12809: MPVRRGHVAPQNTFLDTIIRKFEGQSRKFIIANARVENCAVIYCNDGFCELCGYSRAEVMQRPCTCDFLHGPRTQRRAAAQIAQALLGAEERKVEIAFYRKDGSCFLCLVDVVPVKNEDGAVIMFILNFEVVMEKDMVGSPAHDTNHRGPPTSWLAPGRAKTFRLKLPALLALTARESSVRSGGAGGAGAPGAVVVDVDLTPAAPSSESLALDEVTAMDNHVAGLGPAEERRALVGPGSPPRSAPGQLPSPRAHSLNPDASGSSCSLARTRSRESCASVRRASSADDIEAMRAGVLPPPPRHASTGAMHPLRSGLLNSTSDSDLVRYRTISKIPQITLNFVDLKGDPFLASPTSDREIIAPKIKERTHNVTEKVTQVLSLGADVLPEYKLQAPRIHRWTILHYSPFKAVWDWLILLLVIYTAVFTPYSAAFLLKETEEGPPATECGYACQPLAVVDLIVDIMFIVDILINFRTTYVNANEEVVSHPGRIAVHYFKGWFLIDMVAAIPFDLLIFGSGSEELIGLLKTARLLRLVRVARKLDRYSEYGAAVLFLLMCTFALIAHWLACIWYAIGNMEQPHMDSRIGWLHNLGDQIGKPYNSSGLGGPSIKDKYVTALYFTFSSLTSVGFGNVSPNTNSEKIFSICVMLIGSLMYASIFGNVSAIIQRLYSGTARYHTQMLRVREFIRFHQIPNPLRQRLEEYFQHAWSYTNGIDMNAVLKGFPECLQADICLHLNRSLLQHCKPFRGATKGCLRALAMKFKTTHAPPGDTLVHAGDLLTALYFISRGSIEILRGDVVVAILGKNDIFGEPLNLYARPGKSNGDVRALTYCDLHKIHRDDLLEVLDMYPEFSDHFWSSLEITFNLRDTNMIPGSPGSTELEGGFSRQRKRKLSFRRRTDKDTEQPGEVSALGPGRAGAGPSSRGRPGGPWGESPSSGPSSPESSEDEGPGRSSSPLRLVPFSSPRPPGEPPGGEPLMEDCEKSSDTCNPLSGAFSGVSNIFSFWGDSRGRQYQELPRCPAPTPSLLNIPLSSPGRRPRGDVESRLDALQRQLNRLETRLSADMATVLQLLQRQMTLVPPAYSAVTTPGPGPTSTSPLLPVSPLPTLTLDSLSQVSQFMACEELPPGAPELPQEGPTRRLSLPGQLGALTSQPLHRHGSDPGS

For `CCNC(=O)c1ccc2c(c1)[nH]c(=O)n2C1CCN(C[C@@H](O)c2ccc(Cl)cc2)CC1`, the Papp [1] was 0.055 ×10⁻⁶ cm/s, the Ki (Protein ENL) was 1.3 µM and the CLH (uL/min/1e6 cells) [2] was 6.9. The Ki [3] was 6 µM, the IC50 [4] was 88 µM and the logD [5] was 2.7. For the same compound, the Ki (Protein AF-9) was 1.5 µM, the Ki [6] was 0.54 µM and the Ki [7] was 4.6 µM.
